Reference: patent US12507703B2, “Methods, devices and compositions for preserving human milk” (The Trustees of Princeton University, priority 2023, dated 2025)

Tested on: lipase
Assay: Lipase/lipolysis assay (EnzChek Lipase Substrate, quenched BODIPY-fatty acid conjugate) on stored human milk
[1] = compound added to fresh human milk, stored 1 week at −20° C., thawed at room temperature, RFU <400 considered a hit
[2] = Food Additive Library compound added to fresh human milk, stored 1 week at −20° C., thawed at room temperature, RFU of <400 considered a hit
[3] = Food-Sourced Compound Library compound added to fresh human milk, stored 1 week at −20° C., thawed at room temperature, RFU <400 considered a hit
[4] = Biolog PM5 compound added to fresh human milk, stored 1 week at −20° C., RFU <400 = hit
[5] = Biolog PM1 compound added to fresh human milk, stored 1 week at −20° C., RFU <400 = hit
[6] = Biolog PM4 compound added to fresh human milk, stored 1 week at −20° C., RFU <400 = hit

| Lipase (RFU) [1] [RFU] | Lipase (RFU) [2] [RFU] | SMILES | also measured |
| --- | --- | --- | --- |
| 1140.163 |  | O=C(O)CCc1ccc(O)cc1 [Desaminotyrosine] |  |
| 832.4473 | 958.5749 | COc1cc(C=O)ccc1O [Vanillin] |  |
|  | 1091.025 | CC1OCCC1=O (stereo not shown) [2-Methyltetrahydrofuran-3-one] |  |
| 804.2399 |  | C[C@@H]1O[C@@H](O[C@H]2[C@H](Oc3cc(O)c4c(=O)cc(-c5ccc(O)c(O)c5)oc4c3)O[C@H](CO)[C@@H](O)[C@@H]2O)[C@H](O)[C@H](O)[C@H]1O [Lonicerin] |  |
|  | 783.4549 | CCOc1ccc(O)cc1 [Compound 4-Ethoxyphenol, 4-Ethoxyphenol] |  |
| 941.4367 |  | COc1cccc(OC)c1OC [1,2,3-Trimethoxybenzene] |  |
|  | 1082.936 | Nc1ccc(C(=O)O)cc1 [4-Aminobenzoic acid] |  |
|  | 802.7858 | COc1cc(CCC(C)=O)ccc1O [Zingerone] |  |
|  | 1032.063 | C=C[C@H]1C[N@@]2CC[C@H]1C[C@@H]2[C@@H](O)c1ccnc2ccc(OC)cc12 [Quinidine] |  |
| 918.4902 |  | CCC(C(=O)O)c1ccccc1 (stereo not shown) [2-Phenylbutanoic acid] |  |
| 1116.692 |  | CC1(C)OC(=O)C=C[C@]2(C)[C@H]3CC[C@@]4(C)[C@H](c5ccoc5)OC(=O)[C@H]5O[C@]54[C@]3(C)C(=O)C[C@@H]12 [Obacunone] |  |
|  | 993.211 | C[C@@H]1CC[C@H]2C(C)(C)[C@H]3C[C@@]12CC[C@@]3(C)O [Cedrol] |  |
| 920.4201 |  | O=C([NH2+][O-])c1cccnc1 [Nicotinamide N-oxide] |  |
| 893.9008 |  | C[C@]12CCC(=O)C=C1CC[C@@H]1[C@@H]2[C@@H](O)C[C@@]2(C)[C@H]1CC[C@]2(O)C(=O)CO [Hydrocortisone] |  |
|  | 948.4821 | NC(=O)c1cccnc1 [Nicotinamide] | Lipase (RFU) [4]: 1058.118 RFU; Lipase (RFU) [3]: 940.3634 RFU |
| 795.0103 |  | CC(C)=CCC/C(C)=C/COc1c2ccoc2cc2oc(=O)ccc12 [Bergamottin] |  |
| 919.4728 |  | CC(C)=CCOc1c2ccoc2cc2oc(=O)ccc12 [Isoimperatorin] |  |
| 930.6963 |  | O=c1cc(-c2ccc(O)cc2)oc2cc(O)cc(O)c12 [Apigenin] |  |
| 799.649 |  | O=C(O)c1ccc[nH]1 [Pyrrole-2-carboxylic acid] |  |
| 812.4075 |  | O=C(O[C@@H]1O[C@@H]2COC(=O)c3cc(O)c(O)c(O)c3-c3c(cc(O)c(O)c3O)C(=O)O[C@H]([C@H]1O)[C@@H]2O)c1cc(O)c(O)c(O)c1 [Corilagin] |  |
| 788.953 |  | NC(=O)Cc1c[nH]c2ccccc12 [Indole-3-acetamide] |  |
|  | 702.504 | CC(=O)c1ccc(C)cc1C [2′,4′-Dimethylacetophenone] |  |
| 912.9048 | 941.1667 | Cc1cc(C)c(O)c(C)c1 [2,4,6-Trimethylphenol] |  |
| 792.3552 | 917.1936 | COc1ccc(CCC(=O)c2c(O)cc(O[C@@H]3O[C@H](CO)[C@@H](O)[C@H](O)[C@H]3O[C@@H]3O[C@@H](C)[C@H](O)[C@@H](O)[C@H]3O)cc2O)cc1O [Neohesperidin dihydrochalcone] |  |
| 1110.911 |  | C#C[C@]1(O)CC[C@H]2[C@@H]3CCc4cc(O)ccc4[C@H]3CC[C@@]21C [Ethynyl Estradiol] |  |
| 962.3906 |  | Oc1cc(O)c2c(c1)O[C@H](c1ccc(O)c(O)c1)[C@H](O)[C@H]2c1c(O)cc(O)c2c1O[C@H](c1ccc(O)c(O)c1)[C@H](O)[C@H]2c1c(O)cc(O)c2c1O[C@H](c1ccc(O)c(O)c1)[C@H](O)C2 [Procyanidin C1] |  |

Further lines, the molecule ahead of its results:

| SMILES | Lipase (RFU) [1] [RFU] | Lipase (RFU) [2] [RFU] | also measured |
| --- | --- | --- | --- |
| O=c1c(O)c(-c2ccc(O)c(O)c2)oc2cc(O)cc(O)c12 [Quercetin] |  |  | Lipase (RFU) (Table 7, single compound 20 mg/mL, human milk stored 1 week at −20° C., inhibited if RFU <400): 803.814 RFU |
| c1coc(Cn2cccc2)c1 [Compound 1-Furfurylpyrrole, 1-Furfurylpyrrole] |  | 746.6053 | Lipase (RFU) [3]: 885.6943 RFU |
| C[C@H](NC(=O)CC[C@H](N)C(=O)O)C(=O)O [γ-L-Glutamyl-L-alanine] |  |  | Lipase (RFU) [3]: 985.9057 RFU |
| O=C(O)c1ccccc1O [Salicylic acid] |  | 1390.025 |  |
| CCCCCCCCCCCCCCCCCCCC(=O)O [Arachidic acid] |  |  | Lipase (RFU) [3]: 966.5559 RFU |
| COc1ccc(-c2cc(=O)c3c(O)c(OC)c(OC)c(OC)c3o2)cc1 [Gardenin B] |  |  | Lipase (RFU) [3]: 1121.926 RFU |
| Cc1ncc(CO)c(C=O)c1O [Pyridoxal] |  |  | Lipase (RFU) [4]: 921.5601 RFU |
| COC(=O)CC(C)=O [Methyl acetylacetate] | 884.646 |  |  |
| C[C@H](N)C(=O)N[C@@H](CCC(N)=O)C(=O)O [L-Alanyl-L-glutamine] (H-Ala-Gln-OH) |  | 945.4172 |  |
| COc1ccc(-c2cc(=O)c3c(O)c(OC)c(OC)cc3o2)cc1O [Eupatorin] |  |  | Lipase (RFU) [3]: 858.1529 RFU |
| CC(=O)CO [Hydroxyacetone] | 837.357 |  |  |
| OCC(O)CO [Glycerol] |  |  | Lipase (RFU) [5]: 1079.2 RFU |
| O=C(O)CC(O)CC(=O)O [3-Hydroxyglutaric acid] |  |  | Lipase (RFU) [3]: 1249.582 RFU |
| CCCCC/C=C/C(=O)O [(E)-Oct-2-enoic acid] | 900.5366 | 890.5954 |  |
| CN1C(=O)C(O)CC1c1cccnc1 (stereo not shown) [Hydroxycotinine] |  |  | Lipase (RFU) [3]: 802.5945 RFU |
| CCCCCCCCCCCCCCCCCCCCC(=O)O [Heneicosanoic acid] | 1102.093 |  |  |
| CCCCCCCCCCCCCCCC(=O)OCC [Ethyl palmitate] |  | 965.2005 |  |
| NCC(O)c1ccccc1 (stereo not shown) [Compound 2-Amino-1-phenylethanol, 2-Amino-1-phenylethanol] | 1076.654 |  |  |
| COc1nccnc1CC(C)C [2-Isobutyl-3-methoxypyrazine] |  | 933.7926 |  |
| N[C@@H](CS)C(=O)O [L-Cysteine] | 937.0882 | 860.7165 | Lipase (RFU) [6]: 873.2094 RFU; Lipase (RFU) [4]: 793.6132 RFU |
| CCCCCCCCCCCCCCCC(=O)OC[C@H](CO)OC(=O)CCCCCCCCCCCCCCC [1,2-Dipalmitoyl-sn-glycerol] | 825.1995 |  |  |
| C[C@H](O)[C@@H](O)[C@@H](O)[C@H](O)C=O [L-Fucose] |  |  | Lipase (RFU) [5]: 882.8257 RFU |
| NCCOP(=O)(O)O [Phosphorylethanolamine] |  |  | Lipase (RFU) [3]: 919.5627 RFU |
| CCCCCCCCCCCCO [Compound 1-Dodecanol, 1-Dodecanol] |  | 944.8837 |  |

| SMILES | Lipase (RFU) [1] [RFU] | Lipase (RFU) [2] [RFU] | also measured |
| --- | --- | --- | --- |
| O=C(O)C(O)c1ccc(O)cc1 (stereo not shown) [p-Hydroxymandelic acid] |  |  | Lipase (RFU) [3]: 1340.37 RFU |
| O=CC[C@@H](O)[C@H](O)[C@H](O)COP(=O)(O)O [2-Deoxy-D-Glucose 6-Phosphate] |  |  | Lipase (RFU) [6]: 1037.931 RFU |
| NC(=O)C[C@H](N)C(=O)O [L-Asparagine] |  | 743.0703 | Lipase (RFU) [5]: 940.1972 RFU; Lipase (RFU) [4]: 1092.375 RFU; Lipase (RFU) [3]: 749.3036 RFU |
| CCCCC(C)CCC(=O)O (stereo not shown) [4-Methyloctanoic acid] |  | 819.5904 |  |
| O=c1c(O)c(-c2cc(O)c(O)c(O)c2)oc2cc(O)cc(O)c12 [Myricetin] |  |  | Hit in lipase inhibition screen (in words) (approximately 2700 compound screen, human milk stored 1 week at −20° C., hit = RFU <400): significantly inhibited lipase activity |
| O=C(O)CCCc1c[nH]c2ccccc12 [Indole-3-butyric acid] |  |  | Lipase (RFU) [3]: 1084.211 RFU |
| Nc1ccn([C@@H]2O[C@H](CO)[C@@H](O)[C@H]2OP(=O)(O)O)c(=O)n1 [Cytidine-2′-monophosphate] |  |  | Lipase (RFU) [6]: 1065.318 RFU |
| OC[C@H]1O[C@@H](O[C@@H]2[C@@H](CO)OC(O)(CO)[C@H]2O)[C@H](O)[C@@H](O)[C@H]1O (mixture of isomers) [Lactulose] |  |  | Lipase (RFU) [5]: 721.9139 RFU |
| Nc1ncnc2nc[nH]c12 [Adenine] |  |  | Lipase (RFU) [4]: 1202.436 RFU |
| O=C(O)Cc1ccc(O)cc1 [p-Hydroxy Phenyl Acetic Acid] |  |  | Lipase (RFU) [5]: 1082.882 RFU |
| CCCCCCCCCCCO [Compound 1-Undecanol, 1-Undecanol] |  | 1096.918 | Lipase (RFU) [3]: 1074.886 RFU |
| Cc1cn([C@H]2C[C@H](OP(=O)(O)O)[C@@H](CO)O2)c(=O)[nH]c1=O [Thymidine-3′-monophosphate] |  |  | Lipase (RFU) [6]: 989.4086 RFU |
| CCCCOC(=O)CCCCCCCCC(=O)OCCCC [Dibutyl sebacate] |  | 630.2081 |  |
| CC(=O)NCCCCCN [N-(5-Aminopentyl)acetamide] | 912.4909 |  |  |
| CCCCC(CC)COC(=O)c1ccccc1C(=O)O (stereo not shown) [Phthalic acid mono-2-ethylhexyl ester] | 998.7071 |  |  |
| CCCCCCCCC/C=C/C(=O)CCc1ccc(O)c(OC)c1 [[10]-Shogaol] |  |  | Lipase (RFU) [3]: 1308.714 RFU |
| C[S+]([O-])CC[C@H](N)C(=O)O (stereo partly drawn) [L- Methionine Sulfoxide] |  |  | Lipase (RFU) [6]: 820.2856 RFU |
| CC(/C=C/C=C(\C)C(=O)O)=C\C=C\C=C(C)\C=C\C=C(/C)C(=O)O [Transcrocetinate disodium] | 971.7624 |  |  |
| Cc1ncc(CO)c(CO)c1O [Pyridoxine] |  | 1095.782 | Lipase (RFU) [4]: 1071.75 RFU |
| NCCc1c[nH]cn1 [Histamine] |  |  | Lipase (RFU) [3]: 810.6531 RFU |
| CCOC(=O)CC(=O)O [3-Ethoxy-3-oxopropanoic acid] | 1065.464 |  |  |
| C[S+]([O-])CC[C@H](N)C(=O)O (stereo partly shown) [Methionine sulfoxide] | 1067.927 |  |  |
| CC(CCC(=O)NCC(=O)O)C1CCC2C3C(O)CC4CC(O)CCC4(C)C3CCC12C (stereo not shown) [Glycochenodeoxycholic acid (sodium salt)] | 1042.644 |  |  |

Where a name gives a salt, the structure may show the parent alone. Where a SMILES comes first, the peptide text is derived from it.
